Results from ChEMBL document CHEMBL1123273.
Some compounds may have been tested in ways that are not shown here.

Assay: Partition coefficient (logP)
Conditions: octanol/water

Compound	logP
CCC(=O)N(c1ccccc1)C1(COC)CCN(CCn2nnn(CC)c2=O)CC1	2.16
CCC(=O)N(c1ccccc1)C1(COC)CCN(CCc2cccs2)CC1	3.95
